Assay: Storage of ADCs in mouse-plasma for 7 days at 37° C.
Assay type: in vitro ADME

B1: Bren. LCHC-2: Brentuximab with Tub-tag on light and heavy chains (SEQ ID NO: 11/12), 3-formyl-L-tyrosine, oxime-linked Payload 2, DAR 4 (conjugate)
heavy: QIQLQQSGPEVVKPGASVKISCKASGYTFTDYYITWVKQKPGQGLEWIGWIYPGSGNTKYNEKFKGKATLTVDTSSSTAFMQLSSLTSEDTAVYFCANYGNYWFAYWGQGTQVTVSAASTKGPSVFPLAPSSKSTSGGTAALGCLVKDYFPEPVTVSWNSGALTSGVHTFPAVLQSSGLYSLSSVVTVPSSSLGTQTYICNVNHKPSNTKVDKKV[human IgG1 Fc cut from this listing]VDSVEGEGEEEGEE
light: DIVLTQSPASLAVSLGQRATISCKASQSVDFDGDSYMNWYQQKPGQPPKVLIYAASNLESGIPARFSGSGSGTDFTLNIHPVEEEDAATYYCQQSNEDPWTFGGGTKLEIKRTVAAPSVFIFPPSDEQLKSGTASVVCLLNNFYPREAKVQWKVDNALQSGNSQESVTEQDSKDSTYSLSSTLTLSKADYEKHKVYACEVTHQGLSSPVTKSFNRGECGGGGSVDSVEGEGEEEGEE
modifications: 3-formyl-Tyr oxime Payload 2, DAR 4; Brentuximab heavy chain fused to TTL recognition sequence at C-terminus; Brentuximab light chain comprising TTL recognition sequence at C-terminus
DAR before plasma incubation (before incubation): 3.8
DARav after plasma incubation n = 2 (mouse-plasma, 7 days at 37° C.): 3.63
Payload lost (mouse-plasma, 7 days at 37° C.): 5%

Source: patent US20220193251A1, “CD30 TARGETING ANTIBODY DRUG CONJUGATES AND USES THEREOF” (Ludwig-Maximilians-Universitaet Muenchen, priority 2020, published 2022)
